31 compounds from patent publication US10118930B2, “Piperidinylpyrazolopyrimidinones and their use” (BAYER PHARMA AKTIENGESELLSCHAFT, priority 2015, dated 2018) can be followed below.

Counter-ions that a name gives are not always drawn.

By IC50 is commonly meant the concentration that inhibits the measured activity by half. Higher therefore signals weaker potency.

The first test relates to clot lysis (fibrinolysis) in diluted human citrated plasma, tPA-induced. As to the kind of experiment: Plasma-based clot lysis assay (5%). The conditions noted are these: human citrated platelet-poor plasma 5%, fibrinogen 3 μM, CaCl2 10 mM, tPA 0.2 nM, 37° C., OD at 405 nm. It counts as biochemical. Here is the method: B-2. Plasma-based Clot Lysis Assay (5%)
The clot-lysis test system configures the kinetics of clot formation and degradation in vitro and allows quantifying modulation of the process by selected test compounds.
The test compounds were dissolved in 1% acetic acid and further complemented with an equal volume of DMSO. The resulting stock solutions were serially diluted in 0.5% acetic acid/50% DMSO. 1 μL aliquots of these solutions were placed into 384 well microplates (Greiner, black, transparent bottom), followed by 30 μL of diluted human citrated plasma (platelet-poor, final concentration: 5%; supplemented with fibrinogen, final concentration: 3 μM; dilution buffer: 20 mM HEPES, 150 mM NaCl, 0.01% Brij (pH 7)). The reactions were started by addition of 20 μL of CaCl2 (final concentration: 10 mM), and tPA (tissue plasminogen activator, final concentration: 0.2 nM) in dilution buffer, followed by an additional volume of 20 μL dilution buffer for improved mixing. The reactions were incubated at 37° C. […] IC50 values were determined by comparing the resulting time courses with the time course of a blank control reaction.
On to `Cc1ccc(C)c(-c2csc(-c3cnn4c(C5CCNCC5)cc(=O)[nH]c34)n2)c1` [Example 329, 3-[4-(2,5-dimethylphenyl)-1,3-thiazol-2-yl]-7-(piperidin-4-yl)pyrazolo[1,5-a]pyrimidin-5(4H)-one hydrochloride], for which half-maximal inhibition (IC50) required 54 nM. The same measure, in the same setting: then `O=c1cc(C2CCNCC2)n2ncc(-c3nc(-c4ccccc4Cl)no3)c2[nH]1` [Example 121, 3-[3-(2-Chlorophenyl)-1,2,4-oxadiazol-5-yl]-7-(piperidin-4-yl)pyrazolo[1,5-a]pyrimidin-5(4H)-one hydrochloride], with 40 nM; and `Cc1nc(-c2cnn3c(C4CCNCC4)cc(=O)[nH]c23)sc1CC(C)C` [Example 443, 3-[4-methyl-5-(2-methylpropyl)-1,3-thiazol-2-yl]-7-(piperidin-4-yl)pyrazolo[1,5-a]pyrimidin-5(4H)-one hydrochloride], with 23 nM; and `O=C(c1cnn2c(C3CCNCC3)cc(=O)[nH]c12)N1CCC(F)(F)C1` [Example 101, 3-[(3,3-difluoropyrrolidin-1-yl)carbonyl]-7-(piperidin-4-yl)pyrazolo[1,5-a]pyrimidin-5(4H)-one hydrochloride], with 34 nM. The same measure, in the same setting: to `Cc1nc(-c2cnn3c(C4CCNCC4)cc(=O)[nH]c23)sc1C` [Example 328, 3-(4,5-dimethyl-1,3-thiazol-2-yl)-7-(piperidin-4-yl)pyrazolo[1,5-a]pyrimidin-5(4H)-one hydrochloride] belongs 21 nM; to `O=c1cc(C2CCNCC2)n2ncc(-c3ccccn3)c2[nH]1` [Example 2, 7-(Piperidin-4-yl)-3-(pyridin-2-yl)pyrazolo[1,5-a]pyrimidin-5(4H)-one dihydrochloride], 39 nM; to `O=c1cc(C2CCNCC2)n2ncc(-c3nc(-c4cc(F)cc(Cl)c4)no3)c2[nH]1` [Example 138, 3-[3-(3-Chloro-5-fluorophenyl)-1,2,4-oxadiazol-5-yl]-7-(piperidin-4-yl)pyrazolo[1,5-a]pyrimidin-5(4H)-one hydrochloride], 39 nM. As to `COc1ccc(-c2noc(-c3cnn4c(C5CCNCC5)cc(=O)[nH]c34)n2)cc1` [Example 156, 3-[3-(4-methoxyphenyl)-1,2,4-oxadiazol-5-yl]-7-(piperidin-4-yl)pyrazolo[1,5-a]pyrimidin-5(4H)-one hydrochloride], the IC50 came out at 16 nM. This IC50 lies about 2.4-fold lower than the previous one. On the same count and under the same terms, then `COCc1nn2c(C3CCNCC3)cc(=O)[nH]c2c1-c1ccccc1` [Example 11, 2-(Methoxymethyl)-3-phenyl-7-(piperidin-4-yl)pyrazolo[1,5-a]pyrimidin-5(4H)-one hydrochloride], with 57 nM; and `O=c1cc(C2CCNCC2)n2ncc(-c3nc(C4CCN(C5CC5)CC4)no3)c2[nH]1` [Example 193, 3-[3-(1-cyclopropylpiperidin-4-yl)-1,2,4-oxadiazol-5-yl]-7-(piperidin-4-yl)pyrazolo[1,5-a]pyrimidin-5(4H)-one hydrochloride], with 32 nM.

Regarding `Cc1nn2c(C3CCNCC3)cc(=O)[nH]c2c1C(=O)N1CCOCC1(C)C` [Example 427, 3-[(3,3-dimethyl-morpholin-4-yl)carbonyl]-2-methyl-7-(piperidin-4-yl) pyrazolo[1,5-a] pyrimidin-5(4H)-one hydrochloride], the IC50 turned out to be 23 nM.

For the compound `O=c1cc(C2CCNCC2)n2ncc(-c3ccc(-c4ccc(C(F)(F)F)cc4)cc3)c2[nH]1` [Example 161, 7-(piperidin-4-yl)-3-[4′-(trifluoromethyl)biphenyl-4-yl]pyrazolo[1,5-a]pyrimidin-5(4H)-one hydrochloride], the midpoint of inhibition, the IC50, lay at 330 nM. With `O=c1cc(C2CCNCC2)n2ncc(-c3nnc(Cc4ccccn4)o3)c2[nH]1` [Example 285, 7-(piperidin-4-yl)-3-[5-(pyridin-2-ylmethyl)-1,3,4-oxadiazol-2-yl]pyrazolo[1,5-a]pyrimidin-5 (4H)-one trihydrochloride], half-maximal inhibition (IC50) required 28 nM. On the same count and under the same terms, to `O=c1cc(C2CCNCC2)n2ncc(-c3cccc(F)c3)c2[nH]1` [Example 52, 3-(3-Fluorophenyl)-7-(piperidin-4-yl)pyrazolo[1,5-a]pyrimidin-5(4H)-one hydrochloride] belongs 24 nM; to `O=C1CCCN1Cc1nnc(-c2cnn3c(C4CCNCC4)cc(=O)[nH]c23)o1` [Example 292, 3-{5-[(2-oxopyrrolidin-1-yl)methyl]-1,3,4-oxadiazol-2-yl}-7-(piperidin-4-yl)pyrazolo[1,5-a]pyrimidin-5(4H)-one hydrochloride], 34 nM; to `COc1ccccc1-c1nnc(-c2cnn3c(C4CCNCC4)cc(=O)[nH]c23)o1` [Example 184, 3-[5-(2-methoxyphenyl)-1,3,4-oxadiazol-2-yl]-7-(piperidin-4-yl)pyrazolo[1,5-a]pyrimidin-5(4H)-one hydrochloride], 36 nM.

`Cc1nn2c(C3CCNCC3)cc(=O)[nH]c2c1C1CC1` [Example 368, 3-cyclopropyl-2-methyl-7-(piperidin-4-yl)pyrazolo[1,5-a]pyrimidin-5(4H)-one hydrochloride] came in with an IC50 of 390 nM. Turning to `CC(CF)(CF)c1csc(-c2cnn3c(C4CCNCC4)cc(=O)[nH]c23)n1` [Example 307, 3-[4-(1,3-difluoro-2-methylpropan-2-yl)-1,3-thiazol-2-yl]-7-(piperidin-4-yl)pyrazolo[1,5-a]pyrimidin-5(4H)-one hydrochloride], the half-maximal inhibitory concentration (IC50) came out at 20 nM. On the same count and under the same terms, to `Cc1nn2c(C3CCNCC3)cc(=O)[nH]c2c1C(=O)N1CCCC2(CC2)C1` [Example 409, 3-(5-azaspiro [2.5]oct-5-ylcarbonyl)-2-methyl-7-(piperidin-4-yl) pyrazolo[1,5-a] pyrimidin-5(4H)-one hydrochloride] belongs 46 nM. Regarding `COCCc1noc(-c2cnn3c(C4CCNCC4)cc(=O)[nH]c23)n1` [Example 206, 3-[3-(2-methoxyethyl)-1,2,4-oxadiazol-5-yl]-7-(piperidin-4-yl)pyrazolo[1,5-a]pyrimidin-5(4H)-one hydrochloride], the IC50 was determined as 20 nM. Consider `O=c1cc(C2CCNCC2)n2ncc(-c3nnc(-c4cccc(Cl)c4)o3)c2[nH]1` [Example 169, 3-[5-(3-chlorophenyl)-1,3,4-oxadiazol-2-yl]-7-(piperidin-4-yl)pyrazolo[1,5-a]pyrimidin-5(4H)-one hydrochloride], for which half-maximal inhibition (IC50) was put at 34 nM. This IC50 lies about 1.7-fold higher than the previous one.

With `C[C@H]1CCC[C@H]1c1nc(-c2cnn3c(C4CCNCC4)cc(=O)[nH]c23)no1` (relative stereo) [Example 387, Rel-3-{5-[(1R,2S)-2-methylcyclopentyl]-1,2,4-oxadiazol-3-yl}-7-(piperidin-4-yl)pyrazolo[1,5-a]pyrimidin-5(4H)-one hydrochloride], the IC50 was 10 nM. `CC1(NC(=O)c2cnn3c(C4CCNCC4)cc(=O)[nH]c23)CCC1` [Example 91, N-(1-methylcyclobutyl)-5-oxo-7-(piperidin-4-yl)-4,5-dihydropyrazolo[1,5-a]pyrimidine-3-carboxamide hydrochloride] displayed an IC50 of 19 nM.

In turn, `O=c1cc(C2CCNCC2)n2ncc(-c3noc(C(F)(F)F)n3)c2[nH]1` [Example 390, 7-(piperidin-4-yl)-3-(5-(trifluoromethyl)-1,2,4-oxadiazol-3-yl)pyrazolo[1,5-a]pyrimidin-5(4H)-one hydrochloride] yielded an IC50 of 34 nM. Consider `Cc1nn2c(C3CCNCC3)cc(=O)[nH]c2c1C(=O)N1CC(C)OC(C)C1` (stereo not shown) [Example 419, 3-[(2,6-dimethyl-morpholin-4-yl)carbonyl]-2-methyl-7-(piperidin-4-yl) pyrazolo[1,5-a] pyrimidin-5(4H)-one hydrochloride], for which the IC50 came to 35 nM. Still for that read-out and setting: to `Cc1nn2c(C3CCNCC3)cc(=O)[nH]c2c1C(=O)N1CCc2ccccc2C1` [Example 414, 3-(3,4-dihydro-isoquinolin-2(1H)-ylcarbonyl)-2-methyl-7-(piperidin-4-yl) pyrazolo[1,5-a] pyrimidin-5(4H)-one hydrochloride] belongs 35 nM; to `Cc1cnc(Cc2nnc(-c3cnn4c(C5CCNCC5)cc(=O)[nH]c34)o2)s1` [Example 277, 3-{5-[(5-methyl-1,3-thiazol-2-yl)methyl]-1,3,4-oxadiazol-2-yl}-7-(piperidin-4-yl)pyrazolo[1,5-a]pyrimidin-5(4H)-one hydrochloride], 17 nM. Same read-out and setting: then `CCNC(=O)c1cnn2c(C3CCNCC3)cc(=O)[nH]c12` [Example 19, N-Ethyl-5-oxo-7-(piperidin-4-yl)-4,5-dihydropyrazolo[1,5-a]pyrimidine-3-carboxamide hydrochloride], with 15 nM. Still for that read-out and setting: to `O=C(NCc1ccccc1)c1c(-c2ccccc2)nn2c(C3CCNCC3)cc(=O)[nH]c12` [Example 42, N-Benzyl-5-oxo-2-phenyl-7-(piperidin-4-yl)-4,5-dihydropyrazolo[1,5-a]pyrimidine-3-carboxamide trifluoroacetate] belongs 18 nM; to `O=c1cc(C2CCNCC2)n2ncc(-c3cnc(N4CCOCC4)s3)c2[nH]1` [Example 376, 3-[2-(morpholin-4-yl)-1,3-thiazol-5-yl]-7-(piperidin-4-yl)pyrazolo[1,5-a]pyrimidin-5 (4H)-one hydrochloride], 32 nM.

Staying with this test, now noted: human citrated platelet-poor plasma 5%, fibrinogen 3 μM, CaCl2 10 mM, tPA 0.2 nM, 37° C., OD at 405 nm; trifluoroacetate.
Turning to `CCOC(=O)c1c(C)nn2c(C3CCNCC3)cc(=O)[nH]c12` [Example 9, Ethyl 2-methyl-5-oxo-7-(piperidin-4-yl)-4,5-dihydropyrazolo[1,5-a]pyrimidine-3-carboxylate trifluoroacetate], half-maximal inhibition (IC50) was put at 33 nM. In other words, the double-digit nanomolar range.
